Consider two molecules from patent US20160185875A1 (DCB USA, published 2016).

Sequences of proteins named here, by UniProt entry; tags and fusion partners are left off. Residues count along the entry.
UniProt P01375, 77-233 limits assumed: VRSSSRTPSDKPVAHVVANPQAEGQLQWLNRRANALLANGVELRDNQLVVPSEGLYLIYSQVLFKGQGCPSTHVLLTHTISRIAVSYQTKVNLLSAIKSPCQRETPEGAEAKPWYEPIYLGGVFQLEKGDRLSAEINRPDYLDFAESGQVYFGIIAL

This test has as its target T1, TNF-α (UniProt P01375 77-233).
T1 construct: also called tumor necrosis factor-alpha
Kind of test: ELISA on coated TNF-α, before MMP2 treatment (FIG. 10). For orientation: ELISA stands for enzyme-linked immunosorbent assay.

B1: IgG4 hinge/MMP2/infliximab (antibody)
light: ESKYGPPCPSCPGPLGVRDILLTQSPAILSVSPGERVSFSCRASQFVGSSIHWYQQRTNGSPRLLIKYASESMSGIPSRFSGSGSGTDFTLSINTVESEDIADYYCQQSHSWPFTFGSGTNLEVKRTVAAPSVFIFPPSDEQLKSGTASVVCLLNNFYPREAKVQWKVDNALQSGNSQESVTEQDSKDSTYSLSSTLTLSKADYEKHKLYACEVTHQGLSSPVTKSFNRGEC
heavy: not shown
notes: Uncleaved; also called IgG4 hinge/MMP2/anti-TNF-α antibody
Turning to B1, the “antigen-binding capability (% of parent antibody)” value came to 31.5%.

B2: IgA2 hinge/MMP2/infliximab (antibody)
light: PVPPPPPCCHGPLGVRDILLTQSPAILSVSPGERVSFSCRASQFVGSSIHWYQQRTNGSPRLLIKYASESMSGIPSRFSGSGSGTDFTLSINTVESEDIADYYCQQSHSWPFTFGSGTNLEVKRTVAAPSVFIFPPSDEQLKSGTASVVCLLNNFYPREAKVQWKVDNALQSGNSQESVTEQDSKDSTYSLSSTLTLSKADYEKHKLYACEVTHQGLSSPVTKSFNRGEC
heavy: not shown
notes: Uncleaved; also called IgA2 hinge/MMP2/anti-TNF-α antibody
Regarding B2, the “antigen-binding capability (% of parent antibody)” value is 23.5%.
